Measured values: US20040102442A1, “Remedies for alzheimer's disease” (priority 2000, published 2004)

Biological target: T1, Human type-X sPLA2 (Homo sapiens, UniProt O15496)
T1 construct: made in house; host or cells: CHO cells, stably transfected with a pSVL expression vector; culture supernatant used as the enzyme source
T1 sequence (O15496 43-165): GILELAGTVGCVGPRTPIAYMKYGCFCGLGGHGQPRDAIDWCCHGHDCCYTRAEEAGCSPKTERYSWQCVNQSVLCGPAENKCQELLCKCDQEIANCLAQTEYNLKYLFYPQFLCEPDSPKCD
Assay: type-X sPLA2 inhibition test (chromogenic assay, diheptanoylthio PC)
Type: biochemical
Settings: diheptanoylthio PC 1 mM, Triton X-100 0.3 mM, 30 min at 40° C., absorbance at 405 nm
Excerpt: cDNA sequence encoding human type-X sPLA2 (Cupillard et al., J. Biol. Chem, 1997, 272, 15745-15752) was inserted into the downstream region of the promoter of pSVL SV40 Late Promoter Expression Vector (Amersham Pharmacia Biotech Inc.) that is an expression vector for mammalian cells. The obtained expression vector was transfected into the host CHO cells with a LipofectAMINE reagent (Gibco BRL Inc.) according to the manufacture's instruction to obtain the CHO cells stably expressing human type-X sPLA2. The transfected cell was cultured in A-MEM medium containing 10% fetal calf serum for 3 days and its culture supernatant was used for the measurement of each enzyme activity.
In order to identify and evaluate an inhibitor of type-X sPLA2, the following chromogenic assay is utilized. […] A general explanation for this assay is described in “Analysis of Human Synovial Fluid Phospholipase A2 on Short Chain Phosphatidylcholine-Mixed Micelles: Development of a Spectrophotometric Assay Suitable for a Micortiterplate Reader” (Analytical Biochemistry, 204, pp 190-197, 1992 by Laure. J. Reynolds. Lori L. Hughes and Edward A. Dennis.
Test compounds (or solvent blank) were added according to the alignment of plates that had been previously set. […] The changes in the absorbance at 405 nm were measured and the inhibition activities were calculated. […]

## CCc1c(C(=O)C(N)=O)c2c(OCC(=O)O)cccc2n1Cc1ccccc1 [Compound 17]
  pIC50: 7.92

pIC50: −log10 of the molar value.
